Here are results for 28 compounds from PubChem BioAssay AID845 (Columbia University Molecular Screening Center, 2007).

Only a part is listed here, and it is no random draw. Active and inactive are the calls of the source.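 Rule for the calls: active = cell count reduction more than 3 SD above the screen-wide mean (cut at about 70% in these data); inactive = the rest.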

A short description of the assay: HUVEC cell count loss after compound exposure – imaging, Hoechst nuclear count, IL-1B stimulus, cytotoxicity control for IL-1B NFkB translocation project, primary screen (AID 845).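 Note: normalized per plate to untreated control cells as the no-loss baseline.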 Particulars: IL-1B stimulated, at 2 µM, stronger effect = higher value.
With `CP(=O)(Nc1ccccc1)Oc1ccc(F)cc1` (stereo not drawn), the cell count reduction was inactive: 24%. For `CCN(CC)CCCOC(=O)C(O)(c1ccccc1)C1CCCCC1` (stereo not drawn) the value was inactive: 4.6%; for `CP(=O)(Nc1ccccc1F)Oc1ccccc1` (stereo not drawn), inactive: 0%. For `CCOP(C)(=S)SCC(=O)NC(C)(CC)C(=O)O` (stereo not drawn) the value was inactive: -56.6%.

For the compound `CP(=O)(Nc1ccc2c(c1)OCCO2)Oc1ccccc1` (stereo not drawn), the cell count reduction was inactive: -0.8%. With `CN(C)CCOC(=O)C(O)(c1ccccc1)C1CCCCC1` (stereo not drawn), the cell count reduction is inactive: 2.4%. With `CP(=O)(OC12CC3CC(CC(C3)C1)C2)OC12CC3CC(CC(C3)C1)C2`, the cell count reduction was inactive: 14.4%. As to `COc1ccccc1OP(C)(=O)Nc1c(C)n(C)n(-c2ccccc2)c1=O` (stereo not drawn), the cell count reduction was inactive: -21.8%. For `CP(=O)(Oc1ccccc1)N1CCOC1=O` (stereo not drawn) the value was inactive: 3.4%. Regarding `CCN(CC)CC(O)COC(=O)C(O)(c1ccccc1)C1CCCCC1` (stereo not drawn), the cell count reduction was inactive: -30.1%. The value for `CC(C)(C)c1ccc(OP(C)(=O)O)cc1` was inactive: 2.3%; that for `CP(=O)(Nc1ccc(Cl)cc1)Oc1ccc(F)cc1` (stereo not drawn) was inactive: -8.5%; that for `COc1ccc(OP(C)(=O)Nc2ccccn2)cc1` (stereo not drawn) was inactive: -15.8%. For the compound `CN(C)CCOC(=O)C(O)(c1ccccc1)C1CCCC1` (stereo not drawn), the cell count reduction was inactive: -11.5%. For `COc1ccccc1OP(C)(=O)Nc1ccc(C)cc1C` (stereo not drawn) the value was inactive: -2.1%; for `CP(=O)(Nc1ccccn1)Oc1ccccc1` (stereo not drawn), inactive: -9.2%; for `CCc1ccc(OP(C)(=O)O)cc1`, inactive: -2.3%.

For the compound `Cc1c(NP(C)(=O)Oc2ccc(C(C)C)cc2)c(=O)n(-c2ccccc2)n1C` (stereo not drawn), the cell count reduction is inactive: 4.2%.

As for `COc1ccccc1OP(C)(=O)Nc1ccc(C)c(C)c1` (stereo not drawn), the cell count reduction is inactive: -25.6%. With `Cc1nc2ccc3ccccc3c2o1.O=[N+]([O-])c1cc([N+](=O)[O-])c(O)c([N+](=O)[O-])c1`, the cell count reduction was inactive: -3.4%. For `COc1ccc(OP(C)(=O)Nc2cccc(F)c2)cc1` (stereo not drawn) the value was inactive: -30.5%; for `CP(=O)(NC(=O)Nc1ccccc1)Oc1ccccc1` (stereo not drawn), inactive: -8.5%. With `CP(=O)(Nc1ccccn1)Oc1ccc(Cl)cc1` (stereo not drawn), the cell count reduction was inactive: -9%. The value for `CP(=S)(Nn1cnnc1)Oc1ccccc1` (stereo not drawn) was inactive: -18.8%; that for `COc1ccccc1OP(C)(=O)Nc1c(C)cccc1C` (stereo not drawn) was inactive: -7.3%. For `Cc1nc2ccc3ccccc3c2s1.O=[N+]([O-])c1cc([N+](=O)[O-])c(O)c([N+](=O)[O-])c1` the value was inactive: -0.4%; for `Cc1ccc(C)c(NP(C)(=O)Oc2ccccc2)c1` (stereo not drawn), inactive: 1.2%. As for `Cc1cc(C)cc(OP(C)(=O)Nc2ccccn2)c1` (stereo not drawn), the cell count reduction was inactive: -10.5%.
